Earlier results as cited in patent publication US5632983A, “Method for treating secondary immunodeficiency” (University of South Florida, priority 1994, dated 1997).

Columns and labels:
[1] = test system: T lymphocyte; conditions: mouse, in vivo; cited from earlier work
[2] = test system: T lymphocyte; conditions: rIL-2 in equivalent dose; cited from earlier work
[3] = test system: malignant melanoma; conditions: low dose; rIL-2 in equivalent dose; cited from earlier work

rIL-2: non-glycosylated protein that is produced by the human cDNA sequence of Interleukin-2
inactive: T lymphocyte development in neonatal mice [1] | T lymphocyte development and function in hydrocortisone-treated, aged mice [2] | life in mice bearing malignant melanoma [3]
